Protein sequences, listed by entry. Tags and fused reporters are not part of them. Lines headed by an entry give the natural chain unless they say otherwise; changes in a name come on top.
UniProt Q9GZT9: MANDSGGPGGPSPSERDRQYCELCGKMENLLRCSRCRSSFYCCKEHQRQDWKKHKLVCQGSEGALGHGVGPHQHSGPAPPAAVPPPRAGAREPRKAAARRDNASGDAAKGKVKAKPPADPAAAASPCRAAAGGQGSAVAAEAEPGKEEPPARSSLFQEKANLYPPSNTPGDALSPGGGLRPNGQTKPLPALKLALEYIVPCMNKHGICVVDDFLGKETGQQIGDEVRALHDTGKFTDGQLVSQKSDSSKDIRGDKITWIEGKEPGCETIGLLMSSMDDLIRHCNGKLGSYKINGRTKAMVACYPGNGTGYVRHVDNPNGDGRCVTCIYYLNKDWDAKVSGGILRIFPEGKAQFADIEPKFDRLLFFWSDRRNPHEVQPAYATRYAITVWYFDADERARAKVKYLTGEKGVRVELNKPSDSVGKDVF

According to ChEMBL document CHEMBL2311536 (J Med Chem, 2013):

Key:
[1] = target: T1, Egl nine homolog 1 (Homo sapiens, UniProt Q9GZT9); test: Inhibition of human PHD2 catalytic domain (181 to 426) Mn2 expressed in Escherichia coli by NMR spectroscopic analysis
[2] = target: T1, Egl nine homolog 1; test: Binding affinity to human PHD2 catalytic domain (181 to 426) Mn2 expressed in Escherichia coli by NMR spectroscopic analysis

O=C(O)c1ccc(O)c2ncccc12
IC50 [1]: 15 µM | Kd [2]: 60 µM
